In patent US20120220665A1, “Inhibiting Neurotransmitter Reuptake” (MAYO FOUNDATION FOR MEDICAL EDUCATION AND RESEARCH, priority 2009, published 2012):

Test system: hSERT (S), hNET (N), hDAT (D)
Test: Comparison of binding potency across the three human transporters
Conditions: order by KD

Row | Structure (SMILES) | Potency (rank order of transporter binding)
1 | CN[C@H]1CC[C@@H](c2ccc(Cl)c(Cl)c2)c2ccccc21 [Sertraline, reference compound] | S > D > N
2 | Fc1ccc([C@@H]2CCNC[C@H]2COc2ccc3c(c2)OCO3)cc1 [Paroxetine, reference compound] | S > N > D
